The source of these data is PMC6974733, “Rap1‐mediated nucleosome displacement can regulate gene expression in senescent cells without impacting the pace of senescence”.

Experiment [1] concerns the target GST-Rap1^SHY (full-length) (S. cerevisiae) (UniProt P11938). Kind of experiment: pull-down; Equimolar GST-tagged protein (0.5 μM; GST-SANT and its mutants, or full-length Rap1 and Rap1^SHY) on glutathione beads and H3/H4 (0.5 μM). 400 mM NaCl; anti-H3 immunoblot, wild type set to 1.0.
The next experiment deals with GST-SANT (S. cerevisiae) (UniProt P11938). Kind of experiment: pull-down; Equimolar GST-Rap1 constructs (2 μM) on glutathione resin and H3/H4 (2 μM). 300 mM NaCl (similar interaction strengths from 150 to 750 mM NaCl). Coomassie stain and anti-H3 immunoblot; H3 signal normalised with full-length Rap1 set as 1.0.

Substance “histone H3/H4 tetramers (from UniProt P61830 1-136; P02309 1-103) (complex)” yielded a loss of H3/H4 binding signal against full-length wild-type Rap1 in experiment [1] of 50%. Also, the binding relative to full-length Rap1 (fold of full-length Rap1) with GST-SANT (S. cerevisiae) stood at 0.5.
